Measured values published in patent US11304930B2, “Ammonium salts of 3-(3,5-dibromo-4-hydroxybenzyliden)-5-indo-1,3-dihydroindol-2-one and uses thereof” (Metagone Biotech Inc., priority 2018, dated 2022).

assay: Water solubility of GW5074 salts

Going from CCNCC.O=C1Nc2ccc(I)cc2C1=Cc1cc(Br)c(O)c(Br)c1 [Diethylamine Salt of GW5075] to O=C1Nc2ccc(I)cc2C1=Cc1cc(Br)c([O-])c(Br)c1.[Na+] [MG-A1, Sodium Salts of GW5074, reference compound], the Solubility rises from 0.12 mg/100 mL to 0.5 mg/100 mL.

First: O=C1Nc2ccc(I)cc2C1=Cc1cc(Br)c(O)c(Br)c1.OCCN(CCO)CCO [MG-A3, Triethanolamine Salt of GW5075]
Second: CNC[C@H](O)[C@@H](O)[C@H](O)[C@H](O)CO.O=C1Nc2ccc(I)cc2C1=Cc1cc(Br)c(O)c(Br)c1 [N-Methylglucamine Salt of GW5075]
The Solubility of the first is lower: 2.36 mg/100 mL for the first, 275 mg/100 mL for the second.

Going from C1CNCCN1.O=C1Nc2ccc(I)cc2C1=Cc1cc(Br)c(O)c(Br)c1 [Piperazine Salt of GW5075] to O=C1Nc2ccc(I)cc2C1=Cc1cc(Br)c([O-])c(Br)c1.[K+] [Potassium Salts of GW5074, reference compound], the Solubility falls from 0.74 mg/100 mL to 0.5 mg/100 mL.

With O=C1Nc2ccc(I)cc2C1=Cc1cc(Br)c(O)c(Br)c1.c1ccc(CNCCNCc2ccccc2)cc1 [N, N′-Dibenzylethylenediamine Salt of GW5075] the Solubility was < 0.02 mg/100 mL.
For NC(CO)(CO)CO.O=C1Nc2ccc(I)cc2C1=Cc1cc(Br)c(O)c(Br)c1 [Tris(Hydroxymethyl)Aminomethane Salt of GW5075], the Solubility was < 0.02 mg/100 mL.
